This note sets out measurements from US8865750B2, “Small molecule inhibitors of RGS proteins” (The Regents of The University of Michigan, priority 2011, dated 2014).

Chains of the proteins cited; added tags and fusions are not shown. A line that says so, or that is headed by a name, gives the form on record, which may keep a tag or linker. Residues count along the entry.
UniProt Q01970, whole entry, species assumed: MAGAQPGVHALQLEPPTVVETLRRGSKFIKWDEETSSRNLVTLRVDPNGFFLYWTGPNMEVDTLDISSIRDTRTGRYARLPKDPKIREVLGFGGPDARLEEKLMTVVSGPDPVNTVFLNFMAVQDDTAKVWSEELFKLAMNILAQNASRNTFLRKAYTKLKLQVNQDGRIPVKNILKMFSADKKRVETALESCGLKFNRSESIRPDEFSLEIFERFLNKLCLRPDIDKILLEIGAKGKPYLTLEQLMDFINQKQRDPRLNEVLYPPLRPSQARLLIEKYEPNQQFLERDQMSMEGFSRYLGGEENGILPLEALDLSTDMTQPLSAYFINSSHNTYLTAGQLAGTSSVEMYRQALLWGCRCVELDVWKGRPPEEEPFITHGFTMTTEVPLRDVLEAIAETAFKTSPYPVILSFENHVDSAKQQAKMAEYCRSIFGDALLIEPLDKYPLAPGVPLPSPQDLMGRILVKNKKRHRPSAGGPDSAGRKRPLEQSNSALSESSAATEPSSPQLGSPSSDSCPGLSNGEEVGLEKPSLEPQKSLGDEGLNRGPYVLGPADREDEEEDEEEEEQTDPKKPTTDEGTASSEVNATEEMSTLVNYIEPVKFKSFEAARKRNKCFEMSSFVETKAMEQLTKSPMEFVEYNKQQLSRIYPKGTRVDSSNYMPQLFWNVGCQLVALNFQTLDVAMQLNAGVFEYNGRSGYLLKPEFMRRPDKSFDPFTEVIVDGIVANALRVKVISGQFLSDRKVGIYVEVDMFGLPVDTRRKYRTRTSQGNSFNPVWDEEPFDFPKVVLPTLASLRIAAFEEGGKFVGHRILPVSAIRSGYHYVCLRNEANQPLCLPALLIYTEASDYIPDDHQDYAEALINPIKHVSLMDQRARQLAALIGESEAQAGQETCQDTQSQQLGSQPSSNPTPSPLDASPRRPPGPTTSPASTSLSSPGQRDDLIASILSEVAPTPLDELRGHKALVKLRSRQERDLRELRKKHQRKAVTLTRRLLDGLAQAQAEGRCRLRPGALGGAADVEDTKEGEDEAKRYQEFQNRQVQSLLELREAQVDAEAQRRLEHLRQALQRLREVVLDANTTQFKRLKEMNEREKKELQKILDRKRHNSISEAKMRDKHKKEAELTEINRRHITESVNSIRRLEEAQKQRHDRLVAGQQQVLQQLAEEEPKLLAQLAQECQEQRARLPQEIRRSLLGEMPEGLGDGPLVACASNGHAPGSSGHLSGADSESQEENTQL
UniProt P57771, other isoform, or with tags, fused parts or gaps: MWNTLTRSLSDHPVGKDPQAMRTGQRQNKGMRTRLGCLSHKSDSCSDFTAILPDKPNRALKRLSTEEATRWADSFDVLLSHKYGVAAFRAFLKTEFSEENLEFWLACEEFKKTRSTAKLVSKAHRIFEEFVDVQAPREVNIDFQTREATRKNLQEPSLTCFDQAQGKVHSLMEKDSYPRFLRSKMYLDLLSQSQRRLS
UniProt P49841, whole entry, species assumed: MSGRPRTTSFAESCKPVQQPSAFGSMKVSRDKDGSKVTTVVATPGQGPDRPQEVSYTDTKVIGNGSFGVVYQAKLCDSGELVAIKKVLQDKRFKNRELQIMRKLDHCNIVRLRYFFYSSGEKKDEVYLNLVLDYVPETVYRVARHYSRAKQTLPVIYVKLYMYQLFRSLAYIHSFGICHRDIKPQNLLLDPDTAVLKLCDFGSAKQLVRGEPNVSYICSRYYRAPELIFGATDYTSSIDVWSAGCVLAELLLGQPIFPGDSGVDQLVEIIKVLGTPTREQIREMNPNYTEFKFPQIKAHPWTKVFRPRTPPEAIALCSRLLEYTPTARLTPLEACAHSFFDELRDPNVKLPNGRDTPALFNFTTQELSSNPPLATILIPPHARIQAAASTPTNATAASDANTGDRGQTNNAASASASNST
UniProt P49802, whole entry, species assumed: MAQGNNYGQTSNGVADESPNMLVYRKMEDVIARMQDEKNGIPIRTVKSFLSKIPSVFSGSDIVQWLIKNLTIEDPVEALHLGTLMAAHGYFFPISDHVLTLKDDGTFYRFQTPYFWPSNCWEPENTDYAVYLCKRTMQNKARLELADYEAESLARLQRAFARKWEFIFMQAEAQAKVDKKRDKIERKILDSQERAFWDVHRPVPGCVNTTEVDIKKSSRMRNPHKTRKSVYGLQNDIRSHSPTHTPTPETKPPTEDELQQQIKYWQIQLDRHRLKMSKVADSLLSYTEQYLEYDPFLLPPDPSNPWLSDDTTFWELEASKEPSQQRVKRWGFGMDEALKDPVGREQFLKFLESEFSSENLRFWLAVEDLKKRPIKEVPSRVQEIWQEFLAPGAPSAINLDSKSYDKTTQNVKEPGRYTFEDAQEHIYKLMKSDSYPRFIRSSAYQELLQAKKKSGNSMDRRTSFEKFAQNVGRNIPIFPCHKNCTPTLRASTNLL
UniProt P49795, whole entry, species assumed: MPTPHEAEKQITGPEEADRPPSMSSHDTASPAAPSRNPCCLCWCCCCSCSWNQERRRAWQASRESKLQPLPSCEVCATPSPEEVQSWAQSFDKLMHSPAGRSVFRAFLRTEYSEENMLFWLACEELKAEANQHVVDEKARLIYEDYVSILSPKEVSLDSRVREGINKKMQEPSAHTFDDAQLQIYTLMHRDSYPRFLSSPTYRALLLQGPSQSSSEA
UniProt P00784, 134-345: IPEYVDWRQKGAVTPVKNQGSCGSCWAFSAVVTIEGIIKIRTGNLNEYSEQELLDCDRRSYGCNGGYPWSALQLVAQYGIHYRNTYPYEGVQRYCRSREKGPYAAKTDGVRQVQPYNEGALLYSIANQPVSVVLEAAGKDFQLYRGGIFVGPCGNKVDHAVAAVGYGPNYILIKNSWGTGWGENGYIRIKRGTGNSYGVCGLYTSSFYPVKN
UniProt O15492, whole entry, species assumed: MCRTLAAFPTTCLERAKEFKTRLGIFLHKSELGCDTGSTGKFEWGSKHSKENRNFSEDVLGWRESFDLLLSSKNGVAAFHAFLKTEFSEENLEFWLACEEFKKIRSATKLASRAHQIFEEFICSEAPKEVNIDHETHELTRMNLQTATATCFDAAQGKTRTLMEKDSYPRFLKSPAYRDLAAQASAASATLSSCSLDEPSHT

Read-outs that look alike come from different tables or passages of the source.

One assay addresses PLCβ3 (Homo sapiens (Human), UniProt Q01970). As to the kind of experiment: PLCβ inhibition assay. In kind it is biochemical. The following applies: Table 7. How it is done:
PLCβ inhibition assay: Lipid vesicles containing 200 μM phosphatidylethanolamine, 50 μM PIP2 (Avanti Polar Lipids), and ˜4000-8000 cpm [^3H]-labeled PIP2 (Perkin-Elmer) per assay were generated by combining the lipids in a borosilicate glass tube and drying the mixture under a stream of nitrogen. Dried lipids were resuspended in 50 mM HEPES pH 7, 80 mM KCl, 2 mM EGTA and 1 mM DTT using a bath sonicator. Activity assays were performed in a final volume of 60 μL containing 3 ng mL^−1 PLCβ3, 50 mM HEPES pH 7, 80 mM KCl, 15 mM NaCl, 0.83 mM MgCl2, 3 mM DTT, 1 mg mL^−1 BSA, 2.5 mM EGTA, 0.2 mM EDTA, 2% DMSO, and enough CaCl2 to give a free concentration of ˜200 nM. […] The reactions were initiated by the addition of liposomes and transferred to 30° C. for 5 min. Reactions were terminated by the addition of 100 μL 10 mg mL^−1 BSA and 200 μL 10% (w/v) ice-cold trichloroacetic acid. The reactions were centrifuged at 8000 g for 5 min to pellet proteins and liposomes, and 200 μL of the resulting supernatant containing free [^3H]-IP3 was measured by scintillation counting (Ghosh et al., (2004) Methods Mol Biol 237, 67-75) GSK-3β inhibition assay: […]

In a further assay the target is RGS8 (Homo sapiens (Human), UniProt P57771). As to the kind of experiment: FCPIA: Gαo binding to RGS8. The procedure:
(§1) FCPIA Dose Response and Reversibility Experiments:
(§2) FCPIA was performed as previously described using chemically biotinylated RGS proteins and AlexaFluor-532 labeled Gα0. (Roman et al., J Biomol Screen, 2009; Blazer, L. L., et al., Mol Pharmacol).
FCPIA Dose Response Experiments:
FCPIA was performed as previously described using chemicallybiotinylated RGS proteins and AlexaFluor-532 labeled Gα0. (Blazer, L. L., et al., Mol Pharmacol; Roman et al., J Biomol Screen, 2009).
(§3) RGS/Gα binding studies: The binding of biotinylated RGS proteins to fluorescently labeled Gαo was measured by Flow Cytometry Protein Interaction Assay (FCPIA) method previously described (Roman et al., (2009) J Biomol Screen.; Blazer et al., (2010) Curr Protoc Cytom Chapter 13, Unit 13 11 11-15; Roman et al., (2007) Mol Pharmacol 71, 169-175) as were the measures of compound reversibility.

Assay [1] addresses T1, GSK-3β (Homo sapiens (Human), UniProt P49841). Description: GSK-3β radiometric inhibition assay. It counts as biochemical.
The target of a further assay is RGS7 (Homo sapiens (Human), UniProt P49802). Description: FCPIA: Gαo binding to RGS7. The following applies: Table 7. The procedure:
as §1, §2, §3

Assay [2] has as its target T1, GSK-3β. As to the kind of experiment: GSK-3β inhibition (literature study). It counts as biochemical. Particulars: with literature GSK-3β IC50.
The next assay deals with RGS19 (Homo sapiens (Human), UniProt P49795). As to the kind of experiment: FCPIA: Gαo binding to RGS19. Particulars: Table 7. The procedure:
as §1, §2, §3

The next assay addresses papain (Carica papaya (Papaya), UniProt P00784). In kind it is biochemical. Particulars: Table 7. From the text:
Papain (Sigma-Aldrich, St. Louis, Mo.) activity was monitored by the increase in fluorescence caused by the liberation of fluorescein from autoquenched fluorescein-conjugated casein (AnaSpec, San Jose, Calif.).

A further assay has as its target RGS16 (Homo sapiens (Human), UniProt O15492). As to the kind of experiment: FCPIA: Gαo binding to RGS16. Particulars: Table 7. The procedure: as §1, §2, §3

With `CCCCn1c(=O)sn(CC)c1=O` [CCG-203769, 2-ethyl-4-butyl-1,2,4-thiadiazolidine-3,5-dione], the “Fold Selectivity (RGS4), PLCβ” value at PLCβ3 is greater than 6000. Moreover, on RGS8 (Table 7), the “Fold Selectivity (RGS4), RGS8” value is 4650. Moreover, the “selectivity for RGS4 over GSK-3β” value at GSK-3β [1] is reported as 300 fold; on GSK-3β [2] it was roughly 5000 fold. The “Fold Selectivity (RGS4), GSK3β” value at GSK-3β [1] (Table 7) is 320. The IC50 is 5.4 µM on GSK-3β [1] (Table 7, read-out: IC50 (μM), GSK3β) and 5 µM at GSK-3β [1] (radiometric assay, read-out: GSK-3β IC50). Also, on RGS7, the “Fold Selectivity (RGS4), RGS7” value is reported as greater than 6000. Moreover, the “Fold Selectivity (RGS4), RGS19” value at RGS19 worked out at 8.2. Moreover, on papain, the “Fold Selectivity (RGS4), Papain” value is listed as greater than 6000. For the same compound, the “Fold Selectivity (RGS4), RGS16” value at RGS16 was 350.
In turn, `Cc1ccc(C2=CC(=O)N(Cc3ccccc3)C2=O)cc1` [CCG-203779] came in with an IC50 at RGS8 (Table 2, mean of two independent FCPIA experiments) greater than 100 µM.

As a reminder, the IC50 is the concentration that gives 50% inhibition.
